The values below are quoted from earlier work in US20070123592A1, “Terephthalamide peptidomimetic compounds and methods” (YALE UNIVERSITY, priority 2004, published 2007).

Protein sequences, listed by entry. Tags and fused reporters are not part of them.
UniProt Q07817, whole entry, species assumed: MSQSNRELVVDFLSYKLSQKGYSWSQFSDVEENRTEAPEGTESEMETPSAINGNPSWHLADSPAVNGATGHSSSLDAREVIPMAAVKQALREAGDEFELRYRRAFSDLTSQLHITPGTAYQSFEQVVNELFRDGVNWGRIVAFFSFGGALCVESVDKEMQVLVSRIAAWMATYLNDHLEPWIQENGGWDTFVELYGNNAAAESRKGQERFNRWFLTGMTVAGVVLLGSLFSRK

The data set deals with T1, Bcl-xL/Bak complex (Homo sapiens, UniProt Q07817).
T1 construct: made in house
Conditions: read-out: Kd of 16-mer Bak peptide for Bcl-xL, cited from earlier work.

Like-named read-outs stand apart in the source and are kept apart here.

For “F1-GQVGRQLAIIGDDINR-CONH2 [16-mer Bak peptide, fluorescently labeled 16-mer Bak-peptide, N-terminus capped with fluorophore, C-terminus amidated]”, the Kd (known affinity used to convert IC50 to Ki) was 120 nM and the Kd (known affinity, saturation titration experiment) was 120 nM.

In general, Kd refers to a measure of binding affinity in units of concentration.
